# Antibody variant affinities, Ab-14 heavy chain, assay 1

The target is the same throughout: PDVDLGDISGINAS, from the HR2 region of SARS-CoV-2 spike.

Parent scFv Ab-14: VH joined to VL by the linker GGGGSGGGGSGGGGS. Changes lie in the heavy chain CDRs alone.
VH: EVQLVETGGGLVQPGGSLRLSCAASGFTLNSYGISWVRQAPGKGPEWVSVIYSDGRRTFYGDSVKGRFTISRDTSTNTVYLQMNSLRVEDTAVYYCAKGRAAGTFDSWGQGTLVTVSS
VL: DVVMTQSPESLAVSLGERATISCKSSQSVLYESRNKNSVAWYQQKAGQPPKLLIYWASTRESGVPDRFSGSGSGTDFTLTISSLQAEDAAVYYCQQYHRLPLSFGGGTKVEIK

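The parent was found by panning a naive human phage display library on the peptide. AAYL49 was designed without a model: most single CDR substitutions and a random sample of double and triple ones. Affinity was read by AlphaSeq, a pooled yeast mating assay with surface-displayed partners. After mating in shaken culture at 30 °C for 16 h, diploids were selected and their barcode pairs sequenced. A regression on co-assayed BCL2-family reference pairs converts the normalised counts of each replicate to an apparent Kd. Mating was done three times.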

The parent's heavy chain CDRs are GFTLNSYGIS, VIYSDGRRTFYGDSVK, GRAAGTFDS; each variant's own CDRs replace them letter for letter.
This list gathers variants with a substitution at T28 (VH, numbered from residue 1).
Scale: log10 of Kd in nM, estimated from mating counts; low values are strong binders.
Averages over replicates are reported, and they cover detected replicates only.
"nd" means that the variant was in the library but no mating with the target was seen in that replicate; the authors take this as a sign of poor binding, and no number exists.
In this assay the parent's reference entry averaged 0.65; its copy inside this library read 4.11 (one replicate of three).
Nonspecific signal, from three strains lacking the peptide, appeared in 15% of pairings of library AAYL49, centred on 4.06 (5% of these signals below 2.83); values are not corrected for it.

- GFDLNSYGIS | VILSDGRRTFYGDSTK | GRAAGTFDS -> nd, nd, nd
- GFGLNSYYIS | VIYSDMRRTFYGDSVK | GRAAGTFDS -> 3.75, 4.20, nd (mean 3.98)
- GFFLNSYGIS | VIYSDGRRTFYGDSVK | WRAAGVFDS -> nd, nd, nd
- GFCLNNYGIS | VIYSDGRRTFYGDSVK | GRAAGTFDS -> nd, nd, nd
- GPALNSYGIS | VIYSDYRRTFYGDSVK | GRAAGTFDS -> nd, nd, nd
- HFFLNAYGIS | VIYSDGRRTFYGDSVK | GRAAGTFDS -> 3.84, 3.64, 3.90 (mean 3.80)
- GFNLTSYGIS | VIYSDGRRTFYGDSVK | GRAAGTTDS -> 3.35, nd, nd
- GFNLNSYGIS | VPYSDGRRTFYGDSVK | GRAAGTFPS -> nd, nd, nd
- GFNLNSYGIS | VIYSDGRRTMYGDSVK | GRQAGTFDS -> 0.10, 0.43, 0.21 (mean 0.25)
- GLALNSYGIS | VIYSDGRREFYGDSVK | GRAAGTFDS -> 3.64, 3.34, nd (mean 3.49)
- KFHLNSYGIS | VIYSRGRRTFYGDSVK | GRAAGTFDS -> nd, 3.28, nd
- GFMLNSYGIS | VIYSDGRRTFYGDDVK | GRPAGTFDS -> 6.52, 4.23, 4.19 (mean 4.98)
- GFDLNSYGIS | VIDSDGRRTFYGDRVK | GRAAGTFDS -> nd, 3.87, nd
- GFWLNAYGIS | VIYSDGRRTFYGDSVT | GRAAGTFDS -> 2.29, 2.13, 2.16 (mean 2.19)
- GFDLNSYGIS | VIYSDGRRPFYGDSVK | GRAAWTFDS -> nd, nd, nd
- GAILNSYGIT | VIYSDGRRTFYGDSVK | GRAAGTFDS -> nd, nd, nd
- GGCLNSYGIS | VIYSDGRRTFYCDSVK | GRAAGTFDS -> 3.01, nd, 3.60 (mean 3.30)
- GFGLFVYGIS | VIYSDGRRTFYGDSVK | GRAAGTFDS -> 4.04, nd, 3.15 (mean 3.60)
- GFALNSYGRS | VIYSDGRRTFYGDSVK | GRAAGTFDS -> nd, nd, nd
- GFVLNSYGIS | VIYSDGRRTFYGDSVK | GRAAGTFDS -> 0.97, 1.22, 1.38 (mean 1.19)
- GFVLNSYGIS | VIYSDGRRTMYGDSVK | GDAAGTFDS -> 1.73, 1.76, 2.03 (mean 1.84)
- GFGLNSYGIS | VIYSDVRRTFYGTSVK | GRAAGTFDS -> nd, nd, nd
- GFVLNSYGIS | VIYSKGRRTFYGDSVK | GRAAGTFWS -> nd, nd, nd
- GFQLLSYGIS | VIYADGRRTFYGDSVK | GRAAGTFDS -> 0.82, 1.04, 0.92 (mean 0.92)
- GFCLNSYGIS | VIYSDGRRTFYGDSVK | GRAAGTFDS -> 1.18, 1.15, 1.24 (mean 1.19)
- GFMLNSYGIS | VIYSDNRRTFYGDSVK | GRAAGTFDS -> nd, 4.98, nd
- GFYLNSYGIS | VIYSDGRRTFYNDSVK | GRAAGTFDS -> 3.44, 3.61, 5.27 (mean 4.11)
- GFPLNSYGIS | VLYSDGRRTFYGDSVK | GRNAGTFDS -> 0.64, 0.84, 0.78 (mean 0.75)
- GFYLNSYGIS | VIYSDGRRTFYGDSVK | GRGAGTFCS -> 1.86, 1.97, 1.84 (mean 1.89)
- GFKENSYGIS | VIYSDGRRTLYGDSVK | GRAAGTFDS -> nd, nd, 4.78
- GFELNSYGIS | VIYSDGRRTFYGDSVK | RRAAGTFTS -> nd, nd, nd
- GFIGNSYGIS | VIYSDGRRTFYGDSVK | GDAAGTFDS -> 1.75, 1.69, 2.01 (mean 1.82)
- CFYLNSYGIS | VIYSDGRRTFYGDSVK | GRLAGTFDS -> nd, nd, nd
- GFHLNSYGIS | VIYSDGRRTFYPDSVK | GRMAGTFDS -> 1.32, 1.14, 1.38 (mean 1.28)
- GFDLNSYGIS | VIYPDGRRTFYGDSFK | GRAAGTFDS -> 0.58, 0.78, 0.73 (mean 0.70)
- GFPLNSYPIS | VIYSDGRRTFYGDSVV | GRAAGTFDS -> 3.18, nd, nd
- GFMSNSYGIS | VILSDGRRTFYGDSVK | GRAAGTFDS -> nd, nd, nd
- GFHLNSYGIS | VIYSDGRRTFYGDSVK | GRHAGTFCS -> 1.25, 1.37, 1.06 (mean 1.22)
- KFWLNSYGIS | VIYSDGRRTFYGDSVK | GRAAGTFDS -> nd, nd, 2.67
- WFMLNSYGIS | VIYSDGRRTFYGDSVK | GRAAGTWDS -> nd, nd, nd

Data: MIT Lincoln Laboratory AlphaSeq set, Engelhart et al. 2022, doi:10.1038/s41597-022-01779-4, as distributed in FLAb.